Experimental data from PubChem BioAssay AID485358 (National Center for Advancing Translational Sciences (NCATS), 2010).
Several values for one entry are separate records, joined by “and”; a condition that tells them apart may be missing. Equal values may be shown once. The entries are a selection whose mix differs from that of the whole data set. Some results for these compounds are left out of this collection, so the calls shown say nothing about other tests. Activity calls are given as the source filed them.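 The calls were made as follows: active = activation over 3 SD above normal in the single-dose calcium agonist read (cut at about 30% in these data); inactive = the rest.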

Protein sequences, listed by entry. Tags and fused reporters are not part of them.
UniProt P14416, whole entry: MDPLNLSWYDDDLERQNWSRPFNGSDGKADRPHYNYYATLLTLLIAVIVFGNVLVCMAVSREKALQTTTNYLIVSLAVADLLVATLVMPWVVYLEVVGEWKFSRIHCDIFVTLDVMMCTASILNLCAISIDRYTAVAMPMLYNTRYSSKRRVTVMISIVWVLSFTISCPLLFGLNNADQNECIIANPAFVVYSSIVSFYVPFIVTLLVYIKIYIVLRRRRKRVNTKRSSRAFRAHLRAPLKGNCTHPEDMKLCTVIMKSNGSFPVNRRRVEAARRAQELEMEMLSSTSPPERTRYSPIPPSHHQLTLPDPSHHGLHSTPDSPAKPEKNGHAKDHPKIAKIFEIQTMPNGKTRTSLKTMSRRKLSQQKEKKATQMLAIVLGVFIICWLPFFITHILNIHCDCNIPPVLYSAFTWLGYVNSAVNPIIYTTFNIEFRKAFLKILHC

Target: D(2) dopamine receptor (Homo sapiens) (UniProt P14416)
Experiment: HTS Assay for Allosteric Agonists of the Human D2 Dopamine Receptor: Primary Screen for Agonists; also: 0% is about no effect
Conditions: HEK293 T-REx D2 cells, calcium flux agonist mode; at 2 µM; active compounds read high
Description: NIH Chemical Genomics Center [NCGC] NIH Molecular Libraries Probe Centers Network [MLPCN] MLPCN Grant: NS064831-01 Assay Submitter (PI): David Sibley Dopamine receptors (DARs) are involved in the etiology and/or therapy of a number of neuropsychiatric and endocrine disorders. For instance, all receptor-based antiparkinsonian drugs work via stimulating the D2 DAR subtype whereas all FDA-approved antipsychotic agents are antagonists of this receptor. […] There are three different types of allosteric modulators that we are seeking, two of which will stimulate or augment receptor signaling, allosteric agonists and potentiators, while the third, allosteric antagonists, will attenuate receptor signaling. The present primary screening assay measures compound agonism by tracking calcium flux in a […], inducible Hek293 Trex D2 cell line.
Freshly passaged cells are plated in 1536 well black, clear bottom plates at a density of 4000 cells/well in 3 ul of complete media containing 1x tetracycline inducer. After an overnight incubation at […] in 5% CO2, cells are loaded with 2 ul of the no wash Calcium Assay Kit (ABD Bioquest) and incubated at room temperature for 30 to 90 minutes. Agonist read: A 10 cycle (1 second/cycle) baseline measurement is taken and then the FDSS online 1536 pintool delivers 23 nl of compound library (as well as dopamine controls) to the plate. The plate is measured for kinetically at 1 cycle/sec for 180 seconds and is considered to be the agonist portion of the assay (eg, compounds which activate a positive calcium response during this portion are flagged as potential agonists). Following the 180 second read, 1 ul of either an EC20 (positive modulation assay) or EC80 (negative modulation assay) is delivered by an onboard pipette head. Measurements are taken kinetically for an additional 180 seconds.

SMILES	activation
O=C(OC1CN2CCC1CC2)C(CO)(c1ccccc1)c1ccccc1 (configuration not stated)	inactive: 0.916%
CC(C)COc1ccc(C(=O)NCC2(N(C)C)CCCCC2)cc1	inactive: 1.41%
COc1cc(C(=O)NCC2(N(C)C)CCCCC2)cc(OC)c1OC	inactive: 1.76%
Cc1cccc(C(=O)NCC2(N(C)C)CCCCC2)c1	inactive: 0.297%
COc1ccc(Br)c(C(=O)NCC2(N3CCCCC3)CCCCC2)c1	inactive: -0.0055%
CC(C)Oc1ccc(C(=O)NCC2(N(C)C)CCCCC2)cc1	inactive: 0.784% and inactive: 0.0228%
CN(C)c1cccc(C(=O)NCC2(N(C)C)CCCCC2)c1	inactive: -0.105%
CN(C)C1(CNC(=O)c2ccc(Br)cc2)CCCCC1	inactive: 0.264%
COc1cc(C(=O)NCC2(N(C)C)CCCCC2)c([N+](=O)[O-])cc1OC	inactive: -1.25%
COc1cccc(C(=O)NCC2(N3CCCCC3)CCCCC2)c1	inactive: 0.515%
COc1ccc(Cl)cc1C(=O)NCC1(N(C)C)CCCCC1	inactive: 0.521%
COc1ccc(C(=O)NCC2(N(C)C)CCCCC2)cc1Cl	inactive: 1.16%
O=C(NCC1(N2CCCCC2)CCCCC1)c1cccc(Cl)c1	inactive: 0.536%
Cc1ccccc1C(=O)NCC1(N2CCCCC2)CCCCC1	inactive: 0.906%
CN(C)C1(CNC(=O)c2ccccc2[N+](=O)[O-])CCCCC1	inactive: 0.838%
CN(C)c1ccc(C(=O)NCC2(N(C)C)CCCCC2)cc1	inactive: -0.562%

SMILES	activation
CN(C)C1CCCC1OC(=O)C(O)(c1ccccc1)c1ccccc1 (configuration not stated)	inactive: -1.43%
CCCCOc1ccccc1C(=O)NCC1(N(C)C)CCCCC1	inactive: 0.703%
O=C(NCC1(N2CCCCC2)CCCCC1)c1cc(F)c(F)cc1Cl	inactive: -0.36%
COc1ccc(C(=O)NCC2(N(C)C)CCCCC2)cc1	inactive: -0.651%
CCOc1cccc(C(=O)NCC2(N(C)C)CCCCC2)c1	inactive: 0.622%
CCN1CCCC(OC(=O)C2(O)c3ccccc3C=Cc3ccccc32)C1 (configuration not stated)	inactive: 1.6%
Cc1cc(C(=O)NCC2(N3CCCCC3)CCCCC2)ccc1[N+](=O)[O-]	inactive: 1.38%
O=C(NCC1(N2CCCCC2)CCCCC1)c1cccc(Br)c1	inactive: 1.42%
O=C(NCC1(N2CCCCC2)CCCCC1)c1cc([N+](=O)[O-])ccc1Cl	inactive: 0.353%
CN1[C@@H]2CC[C@H]1CC(OC(=O)C(O)(c1ccccc1)c1ccccc1)C2 (some centres not stated)	inactive: -0.321%
CCN(CC)CC(C)C(C)OC(=O)C(O)(c1ccccc1)c1ccccc1 (configuration not stated)	inactive: 1.83%
CN(C)C1(CNC(=O)c2cccc(Cl)c2)CCCCC1	inactive: 0.73%
COc1cc(SC)ccc1C(=O)NCC1(N(C)C)CCCCC1	inactive: 0.196%
CC(C)N1C(=O)CC2(CCN(CCOC(=O)C(O)(c3ccccc3)c3ccccc3)CC2)C1=O	inactive: 0.323%
Cc1ccc(C(=O)NCC2(N3CCCCC3)CCCCC2)cc1	inactive: -0.394%
CN(C)C1(CNC(=O)c2ccccc2F)CCCCC1	inactive: 1.62%
